{
  "sequences": {"note": "By UniProt entry, the sequences of proteins in these tests, tags left out.", "UniProt P14842, whole entry": "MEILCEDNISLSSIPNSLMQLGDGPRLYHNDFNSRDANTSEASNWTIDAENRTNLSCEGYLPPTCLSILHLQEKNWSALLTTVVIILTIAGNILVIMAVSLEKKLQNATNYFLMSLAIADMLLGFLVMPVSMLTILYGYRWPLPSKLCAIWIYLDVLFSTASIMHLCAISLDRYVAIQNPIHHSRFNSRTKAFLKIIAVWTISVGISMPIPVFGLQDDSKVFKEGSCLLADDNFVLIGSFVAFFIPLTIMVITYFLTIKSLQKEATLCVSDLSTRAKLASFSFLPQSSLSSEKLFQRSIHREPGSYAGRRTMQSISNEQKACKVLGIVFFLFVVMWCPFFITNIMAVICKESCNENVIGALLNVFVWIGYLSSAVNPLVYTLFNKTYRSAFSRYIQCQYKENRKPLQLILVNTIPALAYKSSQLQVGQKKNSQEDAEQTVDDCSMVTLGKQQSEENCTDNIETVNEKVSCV"},
  "source": "patent US9206167B2",
  "about": "“Piperazine-substituted benzothiophenes for treatment of mental disorders” (Otsuka Pharmaceutical Co., Ltd., priority 2005, dated 2015)",
  "biological_target": "Serotonin 5-HT2A receptor (Rattus norvegicus (Rat), UniProt P14842)",
  "assay": "Serotonin 5-HT2A receptor binding assay ([3H]-Ketanserin, rat frontal cortex membrane)",
  "settings": "Ki from IC50 by Cheng-Prussoff formula",
  "protocol": "2) Serotonin 5-HT2A Receptor Binding Assay\nThe assay was performed according to the method by Leysen J E et al. (Leysen J E, Niemegeers C J E, Van Nueten J M and Laduron P M. [3H] Ketanserin (R 41 468), a selective 3H-ligand for serotonin 2 receptor binding sites. Mol. Pharmacol., 1982, 21: 301-314).\nWistar male rats were decapitated, the brain was retrieved immediately and frontal cortex was taken out. It was homogenized in 0.25 M sucrose of a volume 10 times of the weight of the tissue using a Teflon glass homogenizer, and centrifuged at 4° C., 1,000×g for 10 minutes. The obtained supernatant was transferred to another centrifuge tube and suspended in 0.25 M sucrose of a volume 5 times of the weight of the tissue and the precipitate was centrifuged in the above-described condition. […]\nThe filter plate made of glass fiber was washed with 50 mM Tris-hydrochloric acid buffer (pH 7.4), and after dried, a microplate liquid scintillation cocktail was added and the radioactivity was measured with a microplate scintillation counter. Radioactivity in the presence of 10 μM spiperone was assumed as nonspecific binding.\nIC50 value was calculated from concentration-dependent reaction using a non-linear analysis program. Ki value was calculated from IC50 value using Cheng-Prussoff formula.",
  "note": "pKi: −log10 of the molar value. Counter-ions that a name gives are not always drawn.",
  "data": [
    {"smiles": "O=c1c2cc(O)ccc2ccn1CCCCN1CCN(c2cccc3sccc23)CC1", "note": "[Example 39, 2-[4-(4-benzo[b]thiophen-4-yl-piperazin-1-yl)butyl]-7-hydroxy-2H-isoquinolin-1-one hydrobromide]", "values": [
      {"measurement": "pKi", "value": 8.68}
    ]}
  ]
}
